# Curated experimental data: vapor pressure values

Vapor pressure is log10 of mmHg; the set covers 15 to 30 °C, mostly 20 to 25 °C.

SMILES	log VP (log10 mmHg)
COC(=O)C(=Cc1ccc(OC)cc1)C(=O)OC	-5.577
CCCCOC(C)COCC(C)O (stereo unspecified)	-1.222
O=C(Nc1ccc(F)cc1)c1cccc(Oc2cccc(C(F)(F)F)c2)n1	-8.893
CCCCCC1=CCCC1=O	-1.569
CC(C)CN(C[C@@H](O)[C@@H](N)Cc1ccccc1)S(=O)(=O)c1ccc(N)cc1	-6.201
C=C(C)C(=O)OCCCCCCCCCCCC	-3.347
CC(C)CCl	2.176
O=C1CCCCCCCCCCC1Cl (stereo unspecified)	-3.426
CCCCC(CC)C(=O)OC(C)C (stereo unspecified)	0.462
CCC/C=C/C=O	0.847
C[Si](Cl)(Cl)C1CCCCC1	-1.497
NC(=O)Cc1cccc2ccccc12	-8.152
N#Cc1ccc(Nc2nc(O)cc(=O)[nH]2)cc1	-9.837
CN(C)Cc1ccccc1Cl	-0.701
Clc1cccc(-c2cc(Cl)c(Cl)cc2Cl)c1	-4.305
CCOc1ccccc1NC(=O)C(=O)Nc1ccc(CCCCCCCCCC(C)C)cc1	-5.94
CC1CCS(=O)(=O)C1 (stereo unspecified)	-2.139
OCCCOCCCO	-2.871
CC(C)CC(=O)CC(C)CC(C)C (stereo unspecified)	-1.255
Clc1ccc(Br)cc1Cl	-2.179
CCOC(=O)C(F)F	1.353
COc1cc(NC(=O)CC(C)=O)c(OC)cc1Cl	-6.806
O=C(c1ccccc1)c1ccc(-c2ccccc2)cc1	-6.669
N#Cc1cccc(C2=C3C(=O)NC(c4cccc(C#N)c4)=C3C(=O)N2)c1	-12.05
FC(F)(F)C(F)(I)C(F)(F)F	2.566
CC(=O)c1cc2ccccc2o1	-2.815
CCc1ncc[nH]1	-3.222
CNC(=O)N(C)c1nnc(C(F)(F)F)s1	-5.437
CC1CCCC(C)C1N (stereo unspecified)	0.394
C=C(C)C(=O)OCCN1CCOC12CCCCC2	-3.439
CCOC(O)=NS(=O)(=O)c1ccc(C)cc1	-1.548

Again, the 5 entries with the lowest log VP:

SMILES	log VP (log10 mmHg)
N#Cc1cccc(C2=C3C(=O)NC(c4cccc(C#N)c4)=C3C(=O)N2)c1	-12.05
N#Cc1ccc(Nc2nc(O)cc(=O)[nH]2)cc1	-9.837
O=C(Nc1ccc(F)cc1)c1cccc(Oc2cccc(C(F)(F)F)c2)n1	-8.893
NC(=O)Cc1cccc2ccccc12	-8.152
COc1cc(NC(=O)CC(C)=O)c(OC)cc1Cl	-6.806

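The numbers are reported measurements, compiled and curated for the OPERA QSAR suite. One number stands for a compound and property, with no spread given. Conditions of the individual experiments are not part of the data. Where a salt, mixture or single isomer is drawn, the source does not say that exactly this form was tested. Some entries may be limits or estimates that an upstream database listed as plain numbers.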

Values as listed in the OPERA 2.9 repository of K. Mansouri.